{
  "source": "patent US5629198A",
  "about": "(priority 1991, dated 1997)",
  "key": {"male ICR mice [1]": {"system": "male ICR mice", "assay": "One-administration toxicity test, intraperitoneal (Test Example 9)", "type": "in vivo", "protocol": "A specimen was dissolved at a protein concentration of 100 mg/ml in a physiological saline (pH 7.0), and the solution was sterilely filtered through a membrane filter of 0.22 μm. The filtrate was intraperitoneally administered to male ICR mice (Charles River Japan, Inc.) aged 5 weeks and 5 days. Defining the day of the administration as 0 day, their weights were measured on the second, fourth, seventh, tenth and fifteenth days.\nIn each of the toxicity tests, organ autopsy was conducted to all the mice on the fifteenth day after the administration."}, "male ICR mice [2]": {"system": "male ICR mice", "assay": "Repeated-administration toxicity test, 2 weeks (Test Example 10)", "type": "in vivo", "conditions": "intravenous, 80, 200 and 500 mg/kg/day", "protocol": "S-HSA-EDC-Hemin was repeatedly administered for 2 weeks at doses of 80, 200 and 500 mg/kg/day in veins of male ICR mice (Charles River Japan, Inc., 15 mice per group) to observe its effects."}},
  "data": [
    {"substance": "S--HSA--EDC-Hemin: complex of succinylated human serum albumin and EDC-Hemin", "values": [
      {"measurement": "organ autopsy on the fifteenth day", "setting": "male ICR mice [1]", "result": "intestinal adhesion, hepatomegaly and the like"},
      {"measurement": "deaths throughout the administration period", "setting": "male ICR mice [2]", "result": "no deaths"}
    ]}
  ]
}
